Assay results from patent US20140171371A1, “Compositions And Methods For The Diagnosis of Schizophrenia” (The Trustees of Columbia University in the City of New York, priority 2011, published 2014).

Biological target: T1, VPAC2 (Homo sapiens, UniProt P41587)
T1 construct: endogenous in cells; host or cells: lymphoblastoid cell lines from MGS study subjects (7q36.3 duplication/triplication carriers and normal copy-number controls)
T1 sequence (P41587 24-438): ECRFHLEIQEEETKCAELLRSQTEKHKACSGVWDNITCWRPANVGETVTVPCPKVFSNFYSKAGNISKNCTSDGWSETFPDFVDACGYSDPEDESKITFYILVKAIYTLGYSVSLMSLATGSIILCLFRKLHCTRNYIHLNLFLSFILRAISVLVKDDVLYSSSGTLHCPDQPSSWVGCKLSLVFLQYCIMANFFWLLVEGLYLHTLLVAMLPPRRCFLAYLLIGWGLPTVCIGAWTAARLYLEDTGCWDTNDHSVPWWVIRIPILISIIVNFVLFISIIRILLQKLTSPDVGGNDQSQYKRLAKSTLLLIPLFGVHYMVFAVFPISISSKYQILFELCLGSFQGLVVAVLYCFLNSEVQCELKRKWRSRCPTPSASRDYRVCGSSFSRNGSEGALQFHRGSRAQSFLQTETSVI
Assay: Cyclic AMP accumulation in lymphoblastoid cell lines in response to VPAC2 agonists (radioimmunoassay)
Assay type: cell-based
Settings: agonist 100 nM + forskolin 10 μM, IBMX 200 μM pre-incubation, 10 min; fold-change over forskolin/IBMX alone; 9 carriers vs 4 controls
Experimental: Cyclic-AMP signaling has been implicated in schizophrenia^51, 52. It was determined whether increases in VIPR2 transcription and VPAC2-mediated cAMP signaling was a consequence of the microduplications at 7q36.3. VIPR2 mRNA and cAMP accumulation in response to VIP and a VPAC2-selective agonist (BAY 55-9837) in lymphoblastoid cell lines from eight MGS study subjects was assessed: two with subtelomeric duplications, three with duplications of VIPR2, four with partial triplications, and four controls with normal copy number of the region.
Cyclic AMP accumulation was measured in lymphoblastoid cell lines (0.5 million per ml) pre-incubated for 20 minutes with the cyclic nucleotide phosphodiesterase inhibitor isobutylmethylxanthine (IBMX, 200 μM), before the addition of the stimulatory agonists forskolin (10 μM)+/−VIP, [100 nM], BAY 55-9837 (100 nM) or prostaglandin E2 [PGE2, 1 μM] for 10 min. Reactions were terminated by pelleting the cells, aspiration of the medium and addition of 100 μl of cold 7.5% (wt/vol) trichloroacetic acid (TCA). Cyclic AMP content in TCA extracts was determined by radioimmunoassay and normalized to the number of cells per well. Data are expressed as cAMP accumulation in response to the GPCR agonists relative to the response to non-GPCR agonist forskolin (10 μM) and IBMX (200 mM) alone. […]

- cAMP accumulation in response to agonist, 7q36.3 duplication/triplication carriers compared to controls: significantly greater
Substance: vasoactive intestinal peptide [VIP]
